From PubChem
PABP1 MLLE inh: inhibitors of microRNA-mediated deadenylation, human PABP1 MLLE binding | P11940 | GST-MLLE / FITC-PAM2 fluorescence polarization | inhibition, % at 20 µM | actives 0.36% (n = 360,000); in the data active means inhibition above about 35%, passing the limit was not always enough
PABP FP inh: blocks human PABP binding to poly(A) RNA; P11940; fluorescence polarization; calls only at 35 µM; actives 1% (n = 290,000);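 further: calls also rest on retests at 20 µM and on dose response follow-up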
UUG fidelity: modulators of start codon recognition fidelity in yeast; activity score, % at 18.7 µM; actives 0.13% (n = 350,000); S. cerevisiae UUG-firefly luciferase reporter, luminescence/redox ratio;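 active = replicate mean at a twofold rise or more, about +100% in these data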;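 note: firefly luciferase made from a UUG start codon reports start codon fidelity; reporter light over untreated wells divided by growth signal over untreated wells; some hits fall short of that in this replicate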
Pemphigus Ab inh: human desmoglein-3 autoantibody binding inhibition; actives 0.48% (n = 310,000); AID 588358; DSG3-coupled beads, scFv-anti-DSG3-GFP binding, flow cytometry; stronger effect = lower value; binding (percent of control), % at 10 µM;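 active means binding more than 3 SD below its plate's average and above zero; inconclusive means below that plate limit but binding exactly zero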;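 further: hits lower antibody fragment binding to DSG3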
eIF4H inh: inhibitors of RNA binding by human eIF4H; inhibition, % at 35 µM; Q15056; actives 0.94% (n = 290,000); eIF4H fluorescence polarization binding assay;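 further: calls also rest on retests at 20 µM and on dose response follow-up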
Each line names hits and unclear results; the compound was inactive in the other large screens. The list is not random: actives were taken first. Their share in the collection is about 1.5%. Unless noted, how the calls were made is not given here.

C[C@H]1CCCCO[C@H](CN(C)Cc2ccc3c(c2)OCO3)[C@@H](C)CN([C@@H](C)CO)C(=O)c2cc(NC(=O)C3CCCCC3)ccc2O1	none (no result: PABP1 MLLE inh, PABP FP inh, Pemphigus Ab inh, eIF4H inh)
NC(=S)N/N=C1\c2ccccc2-c2c(C(=O)O)cccc21	none
NC(=O)c1cccc2c1-c1ccccc1/C2=N/NC(N)=S	PABP1 MLLE inh 39 (no result: UUG fidelity)
O=C(NCCc1ccc(Cl)cc1)c1nnc(Cc2ccc(Cl)cc2)o1	none
CC(CCc1ccccc1)NC(=O)c1nnc(Cc2ccc(Cl)cc2)o1 (configuration not stated)	Pemphigus Ab inh -13
CCCCOC(=O)c1ccc(NC(=O)COC(=O)C2CSC3(C)CCC(=O)N23)cc1 (configuration not stated)	none (no result: PABP FP inh, UUG fidelity, eIF4H inh)
CC12CCC(=O)N1C(C(=O)OCC(=O)Nc1sccc1C#N)CS2 (configuration not stated)	PABP FP inh active, eIF4H inh 64
CCCNC(=O)C[C@@H]1CC[C@@H]2[C@H](COc3ccc(NC(=O)c4ccc(C(F)(F)F)cc4)cc3C(=O)N2C)O1	none (no result: PABP1 MLLE inh, PABP FP inh, Pemphigus Ab inh, eIF4H inh)
CCCC(=O)Nc1ccc2c(c1)C(=O)N(C)C[C@H](OC)[C@@H](C)CN(Cc1ccccc1F)[C@H](C)CO2	none (no result: PABP1 MLLE inh, PABP FP inh, Pemphigus Ab inh, eIF4H inh)
CCNC(=O)[C@@H]1[C@@H](CO)[C@@H]2Cn3c(ccc(-c4ccccc4F)c3=O)[C@H]1N2CC1CC1	none (no result: PABP1 MLLE inh, PABP FP inh, Pemphigus Ab inh, eIF4H inh)
CN1C(=O)c2cccc(NCCCCCCN3C(=O)c4ccccc4C3=O)c2C1=O	none (no result: Pemphigus Ab inh)
CN1C(=O)c2cccc(NCCCN3C(=O)c4ccccc4C3=O)c2C1=O	PABP FP inh active, eIF4H inh 66
O=C(Sc1cccc2cccnc12)c1ccc(F)cc1	none (no result: PABP1 MLLE inh, UUG fidelity, Pemphigus Ab inh)
O=C(Sc1cccc2cccnc12)c1ccccc1Br	PABP1 MLLE inh 37
CCC(=O)Nc1ccc2c(c1)C(=O)N(C)[C@@H]1CC[C@@H](CC(=O)NCc3ccccc3)O[C@H]1CO2	none (no result: PABP1 MLLE inh, PABP FP inh, Pemphigus Ab inh, eIF4H inh)
O=C(N[C@H]1CC[C@H](CCNC(=O)c2ccccc2F)O[C@@H]1CO)c1ccc2c(c1)OCO2	none (no result: PABP1 MLLE inh, PABP FP inh, Pemphigus Ab inh, eIF4H inh)
Cc1ccc(N=C2NC(=O)CS2)cc1	none (no result: Pemphigus Ab inh)
Cc1ccc(C)n1/N=C1/NC(=O)CS1	PABP FP inh active, eIF4H inh 92
O=C(C[C@@H]1C=C[C@H](NC(=O)C2CC2)[C@H](CO)O1)NCc1ccccc1Cl	none (no result: PABP1 MLLE inh, PABP FP inh, Pemphigus Ab inh, eIF4H inh)
Cc1ccc(S(=O)(=O)Nc2ccc3c(c2)C(=O)N([C@@H](C)CO)C[C@@H](C)[C@@H](CN(C)C(=O)NC(C)C)OCCCC[C@@H](C)O3)cc1	none (no result: PABP1 MLLE inh, PABP FP inh, Pemphigus Ab inh, eIF4H inh)
CSc1nc2ccc(NC(=O)NC(=O)c3c(F)cccc3F)cc2s1	none (no result: UUG fidelity, Pemphigus Ab inh)
COc1cccc(F)c1C(=O)NC(=O)Nc1ccc2nc(C)oc2c1	PABP FP inh active
CC1CCc2c(sc(NC(=O)/C=C/c3cccs3)c2C(=O)O)C1 (configuration not stated)	Pemphigus Ab inh 59
C/C=C/c1ccc([C@H]2[C@@H](CO)N(Cc3ccccn3)[C@@H]2CNC(C)=O)cc1	none (no result: PABP1 MLLE inh, PABP FP inh, Pemphigus Ab inh, eIF4H inh)
O=C(Nn1c(O)c(C=C2N=c3ccccc3=N2)sc1=S)c1ccc(Cl)cc1	none (no result: UUG fidelity)
O=C(Nn1c(O)c(C=C2N=c3ccccc3=N2)sc1=S)c1cccc(Cl)c1	PABP FP inh active
CC1(C)OC(=O)N(CCc2ccccc2)C1(C)O (configuration not stated)	none
CC1(C)OC(=O)N(Cc2ccco2)C1(C)O (configuration not stated)	PABP FP inh active, eIF4H inh inconclusive
O=S(=O)(O)c1cccc2c(N=Nc3ccc(O)c4ncccc34)cccc12	PABP FP inh active, eIF4H inh 82
CN1C2=CC=CC=CC2=[N+](C)C12C([N+](=O)[O-])=CC(=[N+]([O-])[O-])C=C2[N+](=O)[O-] (configuration not stated)	none
CN1C2=CC=CC=CC2=[N+](C)C12C=CC(=[N+]([O-])[O-])C=C2[N+](=O)[O-] (configuration not stated)	Pemphigus Ab inh 76 (no result: UUG fidelity)
Cc1cccc(NC(=O)COC(=O)C2C3CC4OC(=O)C2C4C3)c1C (configuration not stated)	Pemphigus Ab inh 57 (no result: UUG fidelity)
CC(C)COc1ccc(-c2nn(-c3ccccc3)cc2/C=C2/SC(=S)N(CC(=O)O)C2=O)cc1	eIF4H inh 93
CCOC(=O)c1ccc(N2C(=O)CC(SCC(=O)Nc3ccc(S(N)(=O)=O)cc3)C2=O)cc1 (configuration not stated)	none (no result: UUG fidelity)
Cc1ccc(N2C(=O)CC(SCC(=O)Nc3ccc(S(N)(=O)=O)cc3)C2=O)cc1 (configuration not stated)	PABP1 MLLE inh 42 (no result: UUG fidelity)
COc1c(S(=O)(=O)NCCCN2CCOCC2)ccc(Cl)c1Cl	PABP1 MLLE inh 45
COc1ccc(OC)c(S(=O)(=O)NCCCN2CCOCC2)c1	none (no result: PABP FP inh, eIF4H inh)
Cn1c(Cc2c[nH]c3ccccc23)n[nH]c1=S	eIF4H inh 6.5 (no result: UUG fidelity)
Cc1[nH]c2ccccc2c1Cc1n[nH]c(=S)n1C	Pemphigus Ab inh inconclusive
CC(C)CC#Cc1ccc2c(c1)O[C@@H](CN(C)Cc1cccc(F)c1)[C@H](C)CN([C@@H](C)CO)S2(=O)=O	none (no result: PABP1 MLLE inh, PABP FP inh, Pemphigus Ab inh, eIF4H inh)
Cc1nc2ccccc2nc1OCC(=O)Nc1ccc2ccccc2c1	Pemphigus Ab inh 65
COc1ccc(NC(=O)C2CCC(C)(C(=O)O)C2(C)C)cc1 (configuration not stated)	none
CCOc1ccc(NC(=O)C2CCC(C)(C(=O)O)C2(C)C)cc1 (configuration not stated)	PABP FP inh inconclusive, eIF4H inh 130
CC(C)OCCCn1c(-c2ccco2)nc2nc3ccccc3nc21	eIF4H inh inconclusive
CCC(C)n1c(-c2ccco2)nc2nc3ccccc3nc21 (configuration not stated)	PABP FP inh active, eIF4H inh inconclusive (no result: PABP1 MLLE inh, UUG fidelity, Pemphigus Ab inh)
C[C@H](CO)N1C[C@H](C)[C@@H](CN(C)S(C)(=O)=O)OCCCC[C@H](C)Oc2ccc(NS(C)(=O)=O)cc2C1=O	none (no result: PABP1 MLLE inh, PABP FP inh, Pemphigus Ab inh, eIF4H inh)
CC1(C)Cc2nc3sc4c(SCC(=O)O)ncnc4c3cc2CO1	none (no result: UUG fidelity)
COC(=O)CSc1ncnc2c1sc1nc3c(cc12)COC(C)(C)C3	eIF4H inh active (no result: UUG fidelity)
C[C@@H]1CN([C@H](C)CO)C(=O)Cc2cc(NC(=O)CCC(F)(F)F)ccc2O[C@H]1CN(C)C(=O)NC1CCCCC1	none (no result: PABP1 MLLE inh, PABP FP inh, Pemphigus Ab inh, eIF4H inh)
COc1ccc(NC(=O)c2nn(C34CC5CC(CC(C5)C3)C4)cc2[N+](=O)[O-])cc1	PABP FP inh active, eIF4H inh 12 (no result: UUG fidelity)
O=C(C[C@H]1CC[C@@H](NC(=O)c2cnccn2)[C@H](CO)O1)NCc1ccccc1F	none (no result: PABP1 MLLE inh, PABP FP inh, Pemphigus Ab inh, eIF4H inh)
CCCCN(CC)CCNC(=O)c1cc2cc3ccc(Cl)cc3nc2o1	none
CCCCN(CC)CCCNC(=O)c1cc2cc3ccc(C)cc3nc2o1	Pemphigus Ab inh 69
C[C@@H]1CN([C@H](C)CO)C(=O)Cc2cc(NC(=O)Nc3cccc4ccccc34)ccc2O[C@@H]1CN(C)C(=O)Nc1ccc2c(c1)OCO2	none (no result: PABP1 MLLE inh, PABP FP inh, Pemphigus Ab inh, eIF4H inh)
CCc1csc(N2[C@H](C#N)[C@@H](c3ccc(-c4cccc(F)c4)cc3)[C@@H]2CO)n1	none (no result: PABP1 MLLE inh, PABP FP inh, Pemphigus Ab inh, eIF4H inh)
C[C@H](CO)N1C[C@H](C)[C@H](CN(C)C(=O)Cc2ccccc2)Oc2cc(-c3ccccc3)ccc2S1(=O)=O	none (no result: PABP1 MLLE inh, PABP FP inh, Pemphigus Ab inh, eIF4H inh)
CN1c2ccc(-c3ccccc3)cc2[C@H]2[C@H](CCN2C(=O)c2ccncc2)[C@H]1CO	none (no result: PABP1 MLLE inh, PABP FP inh, Pemphigus Ab inh, eIF4H inh)
